Where two headings read alike, the source gives them in different places.
System: MDCK monolayer cell cultures
Settings: 48 hours; for % Toxicity (95% CL) / Toxicity Score: MDCK monolayers

**Q.** What does the source list for “phosphatidylinositol specific phospholipase C [Recombinant PI-PLC]”?
**A.** concentration at which significant toxicity was observed (MDCK cells): ≥ 3 U/mL; concentration range with no significant toxicity (MDCK cells): 0.1-1 U/mL; % Toxicity (95% CL) (0.1 U/mL): 10%; Toxicity Score (0.1 U/mL): 1 (6-25%); % Toxicity (95% CL) (0.3 U/mL): 11%; Toxicity Score (0.3 U/mL): 1 (6-25%); % Toxicity (95% CL) (1 U/mL): 13%; Toxicity Score (1 U/mL): 1 (6-25%); % Toxicity (95% CL) (3 U/mL): 57%; Toxicity Score (3 U/mL): 3 (51-75%); % Toxicity (95% CL) (10 U/mL): 83%; Toxicity Score (10 U/mL): 4 (76-100%)
